In patent US12125561B2, “Determination of JAK-STAT3 pathway activity using unique combination of target genes” (InnoSIGN B.V., priority 2017, dated 2024):

Assays:
[1] = test system: JAK-STAT3 cellular signaling pathway in Sez-4 cell line (cutaneous T-cell lymphoma); experiment: JAK-STAT3 pathway activity, blood Bayesian network model, calibration on data set GSE8687; format: cell-based; settings: calibration samples; cells starved of IL-2 inactive; FIG. 10
Description: A further selection of the evidence curated list of target genes (listed in Table 2) was made by the inventors. The target genes of the evidence curated list that were proven to be more probative in determining the activity of the JAK-STAT3 signaling pathway from the training samples were selected. Herein, available expression data sets of EGFR mutant cells of lung cancer from data set GSE57156 were used. […] Regarding the JAK-STAT3 blood model, a Sez-4 cell line, which was derived from a cutaneous T-cell lymphoma in data set GSE8687, was adopted to select the target genes shortlist.
Herein, we have used publically available mRNA expression data from Affymetrix U133Plus2.0 on two data sets from the GEO database. Because the STAT3 pathway activation of solid cancer cells and blood cells has slightly different effects on the target gene expression levels, two different calibration data sets were used, representative for STAT3 activation in solid cancer cell and blood cell. One data set has EGFR mutant cells from non-small cell lung cancers.
The training group included 3 samples with cells cultured with IL-2, which were STAT3 active. The model was tested on other samples treated with pan-Jak inhibitor (group 3) and Jak3 inhibitor (group 4).

[2] = test system: JAK-STAT3 cellular signaling pathway in Sez-4 cell line (cutaneous T-cell lymphoma); experiment: JAK-STAT3 pathway activity prediction, blood model, data set GSE8685; format: cell-based; settings: cells starved of IL-2 for 16 hours, then IL-2 (200 U) resp. IL-15 (20 ng/mL); FIG. 16
Procedure: A Sez-4 cell line which was derived from a cutaneous T-cell lymphoma (data set GSE8685). The cells starved of IL-2 for 16 hours (group 1), followed by addition of IL-2 (200 U) resp. IL-15 (20 ng/mL). […] The JAK-STAT3 blood model correctly predicts that JAK-STAT3 is active in the cells that were treated with IL-2 (group 2) and IL-15 (group 3) compared to the control group (group 1).

IL-2: cytokine with which Sez-4 cells were cultured
JAK-STAT3 pathway status of cultured cells (odds that the TF element is present) [1]: STAT3 active | predicted JAK-STAT3 pathway status compared to the control group [2]: active
